This is an account of results in ChEMBL document CHEMBL1250436, “Evaluation of N-substitution in 6,7-benzomorphan compounds” (Bioorg Med Chem, 2010).

Amino acid sequences for entries named in this document (tags omitted).
UniProt P33535, whole entry: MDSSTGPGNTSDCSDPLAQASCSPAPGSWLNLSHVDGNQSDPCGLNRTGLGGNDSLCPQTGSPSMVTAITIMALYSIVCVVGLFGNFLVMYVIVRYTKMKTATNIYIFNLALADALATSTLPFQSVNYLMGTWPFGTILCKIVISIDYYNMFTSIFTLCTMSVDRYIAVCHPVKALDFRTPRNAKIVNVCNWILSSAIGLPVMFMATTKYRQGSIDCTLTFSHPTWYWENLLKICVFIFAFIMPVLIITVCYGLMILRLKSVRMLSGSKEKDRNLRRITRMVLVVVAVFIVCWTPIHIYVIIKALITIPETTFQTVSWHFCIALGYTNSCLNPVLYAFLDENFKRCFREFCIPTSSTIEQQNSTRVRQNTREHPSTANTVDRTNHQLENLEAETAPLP

This test deals with Mu-type opioid receptor (Rattus norvegicus, UniProt P33535). Kind of test: Displacement of [3H]DAMGO from Sprague-Dawley rat mu opioid receptor by liquid scintillation counting. (Loss of bound radioactivity is the signal in a displacement assay; it reports binding, not function.)

In turn, `C[C@@H](NC(=O)[C@@H](N)Cc1ccc(O)cc1)C(=O)NCC(=O)N(C)[C@@H](Cc1ccccc1)C(=O)NCCO` [DAMGO] had an inhibition constant (Ki) of 0.87 nM.

As usually defined, the Ki is a dissociation constant, usually derived from enzyme kinetics or from competition with a known ligand.
